This is an account of results in ChEMBL document CHEMBL1821686, “Structure-based optimization of potent 4- and 6-azaindole-3-carboxamides as renin inhibitors” (Bioorg Med Chem Lett, 2011).

Sequences of proteins named here, by UniProt entry; tags and fusion partners are left off. A change or cut given only in a name is not applied to a line headed by its entry.
UniProt P00797: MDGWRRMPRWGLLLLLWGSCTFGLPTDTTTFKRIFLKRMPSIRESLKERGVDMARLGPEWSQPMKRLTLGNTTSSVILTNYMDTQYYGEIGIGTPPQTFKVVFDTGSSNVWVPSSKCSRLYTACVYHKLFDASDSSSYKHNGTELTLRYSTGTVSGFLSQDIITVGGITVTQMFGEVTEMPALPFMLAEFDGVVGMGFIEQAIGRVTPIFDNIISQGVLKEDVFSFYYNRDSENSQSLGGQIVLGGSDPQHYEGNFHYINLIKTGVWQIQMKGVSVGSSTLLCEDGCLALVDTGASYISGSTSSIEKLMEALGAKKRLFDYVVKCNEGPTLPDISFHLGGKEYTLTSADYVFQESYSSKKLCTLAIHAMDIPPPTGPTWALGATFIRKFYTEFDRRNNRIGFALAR

This assay concerns the target Renin (Homo sapiens, UniProt P00797).

Each structure is given as a SMILES string.

In turn, `Cc1ccc(F)cc1Oc1c(C(=O)N2CCNCC2)c2ccnc(Cc3ccccc3)c2n1-c1ccccc1` had a half-inhibitory concentration (IC50) of 3 nM.
